Test: in vivo
Conditions: mouse, female ICR mice of 5 weeks

## COCC(O)Cn1ccnc1[N+](=O)[O-] (stereo not shown) [Comparative (1), 1-(2-Nitro-1-imidazolyl)-3-methoxy-2-propanol, reference compound]
  LD50: 1200 mg/kg
